Results from PubChem BioAssay AID1721 (National Center for Advancing Translational Sciences (NCATS), 2009).
The list shows a part of the results, in another mix than the full data. Some tests of the compounds listed are not included; inactive here does not mean inactive elsewhere. The source made the active and inactive calls. Calls come from the whole dose curve; as a rule, active = well fitted inhibition curve with a large enough effect; inconclusive = small, poorly fitted or top-dose-only effect, or another doubt; inactive = no such curve, though single readings can be large or run the other way.

Sequences of proteins named here, by UniProt entry; tags and fusion partners are left off.
UniProt Q27686, whole entry: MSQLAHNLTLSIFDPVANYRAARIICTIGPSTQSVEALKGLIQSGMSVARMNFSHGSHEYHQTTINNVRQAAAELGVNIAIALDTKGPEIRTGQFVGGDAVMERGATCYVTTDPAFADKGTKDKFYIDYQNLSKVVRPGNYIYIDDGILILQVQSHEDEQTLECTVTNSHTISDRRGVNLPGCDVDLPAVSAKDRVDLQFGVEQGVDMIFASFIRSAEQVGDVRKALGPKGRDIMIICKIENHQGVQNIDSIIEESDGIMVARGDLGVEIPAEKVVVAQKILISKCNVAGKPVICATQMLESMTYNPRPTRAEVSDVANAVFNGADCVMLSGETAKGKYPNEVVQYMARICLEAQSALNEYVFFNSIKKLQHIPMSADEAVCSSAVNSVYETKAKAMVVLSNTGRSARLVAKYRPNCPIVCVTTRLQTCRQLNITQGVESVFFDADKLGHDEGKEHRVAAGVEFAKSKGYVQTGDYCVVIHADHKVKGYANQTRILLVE

biological target: Pyruvate kinase (Leishmania mexicana) (UniProt Q27686); experiment: qHTS Assay for Inhibitors of Leishmania Mexicana Pyruvate Kinase (LmPK); conditions: purified LmPK, Kinase-Glo ATP luminescence, 1 h; at 57.5 µM (top of the series)
From the text: NIH Chemical Genomics Center [NCGC] Malcolm Walkinshaw, Hugh Morgan, Linda Gilmore University of Edinburgh, UK MLPCN Grant: 1 R03 MH085697-01 NCGC Assay Overview: Pyruvate kinase (L. Mexicana) (LmPK) enzyme was supplied as a highly purified (>95% pure) sulphate-free preparation from University of Edinburgh, UK and assayed for its ability to generate ATP from ADP using phosphoenolpyruvate (PEP) as a substrate. ATP generation was detected in a coupled reaction by luciferase-mediated luminescence, an ATP-dependent process. […] The enzyme was assayed at an intermediate level of activity to screen for both inhibitors and activators.
NCGC Assay Protocol Summary: Three uL of enzyme mix (kept on ice) in assay buffer (50 mM Imidazole pH7.2, 50 mM KCl, 7 mM MgCl2, 0.01% Tween 20, 0.05% BSA) containing PEP (0.5 mM final concentration) and LmPK (0.1 nM final concentration) was dispensed into white solid bottom 1,536 well microtiter plates. 23 nL of compound were delivered by a pin tool and 1 uL of ADP mix in assay buffer (r.t; 0.1 mM final ADP concentration) was added. Plates were incubated at room temperature for 1 hour. Two uL of detection mix (Kinase-Glo, Promega; at 4 degree Celsius protected from light) was added and luminescence read by a ViewLux (Perkin Elmer) at 1 second exposure/plate. Data were normalized to the uninhibited and AC100 inhibition (no enzyme). […]
% is set by controls: 0 for no effect and ±100 for the full control effect.

Question: `C=CCN1CCN(CCOC(=O)C(O)(c2ccccc2)c2ccccc2)CC1` was tested. Which activity change, negative = inhibition did it give?
Answer: The activity change, negative = inhibition was inactive: 1.53%.

Question: How did the activity change, negative = inhibition turn out when `CC(C)N1C(=O)CC2(CCN(CCOC(=O)C(O)(c3ccccc3)c3ccccc3)CC2)C1=O` was run?
Answer: Its activity change, negative = inhibition is inactive: 2.55%.
